These results are taken from patent US11999723B2, “Pyrazole-containing macrophage migration inhibitory factor inhibitors” (priority 2018, dated 2024).

Chains of the proteins cited; added tags and fusions are not shown. Residues count along the entry.
UniProt P14174, 2-115 limits assumed: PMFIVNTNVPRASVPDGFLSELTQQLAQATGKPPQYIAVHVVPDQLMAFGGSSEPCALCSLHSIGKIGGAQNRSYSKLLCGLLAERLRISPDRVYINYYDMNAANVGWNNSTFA

The term Ki denotes the equilibrium dissociation constant of an inhibitor or competing ligand from its target.

Molecules are shown by their SMILES.

In the test the target is MIF (Homo sapiens (Human), UniProt P14174). Nature of the test: HPP tautomerase assay (inhibition of the tautomerase activity of MIF). It counts as biochemical. The settings on record: read-out: Ki values; literature compounds tested in a tautomerase inhibition assay.

On to `COc1ccc(N2Cc3ccc(O)cc3OC2=O)cc1`, for which the Ki came to 30 nM.
